IC50 data for 1 compound are collected here from ChEMBL document CHEMBL6092210, “Synthesis, in vitro and in vivo biological evaluation of novel dual compounds targeting both acetylcholinesterase and serotonergic 5-HT4 receptors with potential interest in the treatment of Alzheimer's disease” (Eur J Med Chem, 2024).

By UniProt entry, the sequences of proteins in these tests, tags left out. Where a name states a change or a piece, a line headed by the entry shows the natural chain unless it says otherwise.
UniProt P22303: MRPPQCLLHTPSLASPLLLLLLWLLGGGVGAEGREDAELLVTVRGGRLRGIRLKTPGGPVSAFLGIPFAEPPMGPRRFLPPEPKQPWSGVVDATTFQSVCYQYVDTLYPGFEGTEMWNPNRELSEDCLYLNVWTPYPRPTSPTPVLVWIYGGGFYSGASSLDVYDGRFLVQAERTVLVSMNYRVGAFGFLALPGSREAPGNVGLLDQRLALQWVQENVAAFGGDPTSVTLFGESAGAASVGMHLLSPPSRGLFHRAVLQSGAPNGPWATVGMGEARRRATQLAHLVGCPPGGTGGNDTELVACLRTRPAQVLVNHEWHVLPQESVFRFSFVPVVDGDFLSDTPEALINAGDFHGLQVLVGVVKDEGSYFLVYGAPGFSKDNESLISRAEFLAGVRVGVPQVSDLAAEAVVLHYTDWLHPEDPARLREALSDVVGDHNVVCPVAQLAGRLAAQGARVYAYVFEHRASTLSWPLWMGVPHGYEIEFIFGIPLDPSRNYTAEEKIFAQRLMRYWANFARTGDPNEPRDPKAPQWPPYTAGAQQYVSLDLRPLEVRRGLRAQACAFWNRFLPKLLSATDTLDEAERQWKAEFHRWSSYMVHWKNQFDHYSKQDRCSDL

The target of the experiment is Acetylcholinesterase (Homo sapiens, UniProt P22303). Description: Inhibition of recombinant human erythrocyte AChE using acetyl-or butyrylthiocholine iodide as substrate preincubated for 5 mins followed by substrate addition and measured every min for 10 mins by Ellman's method. The procedure, abridged: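 AChE from human erythrocytes (0.05 U final) or recombinant AChE (0.025 U final), diluted in 20 mM HEPES pH 8 with 0.1 % Triton X-100, in an Ellman assay. DTNB is 0.3 mM in phosphate buffer pH 7.4 and compound is in DMSO. Enzyme and compound are preincubated 5 min at 25 °C. Reaction starts with 1 mM acetylthiocholine iodide solution.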

Regarding `[2H]C([2H])([2H])Oc1cc(N)c(Cl)cc1C(=O)CCC1CCN(CC2CCCCC2)CC1`, the IC50 (usually the midpoint of a concentration-inhibition curve) came to 22.6 nM.
